# Antibody variant affinities, Ab-14 heavy chain, assay 1

Data: MIT Lincoln Laboratory AlphaSeq set, Engelhart et al. 2022, doi:10.1038/s41597-022-01779-4, as distributed in FLAb.

All variants were tested on one target, the spike HR2 peptide PDVDLGDISGINAS (SARS-CoV-2).

The variants keep the light chain, the linker and the frameworks of Ab-14 (scFv order VH, a 15-residue (Gly4Ser)3 linker, VL).
VH: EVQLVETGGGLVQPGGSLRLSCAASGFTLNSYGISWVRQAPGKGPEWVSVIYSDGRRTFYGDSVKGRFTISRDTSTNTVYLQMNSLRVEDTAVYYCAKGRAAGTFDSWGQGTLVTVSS
VL: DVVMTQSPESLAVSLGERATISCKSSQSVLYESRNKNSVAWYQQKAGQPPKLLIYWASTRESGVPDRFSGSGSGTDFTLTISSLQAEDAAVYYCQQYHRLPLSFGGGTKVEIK

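The parent was found by panning a naive human phage display library on the peptide. AAYL49 was designed without a model: most single CDR substitutions and a random sample of double and triple ones. In AlphaSeq, yeast of one mating type display the scFv and yeast of the other type display the target. Mating (16 h, 30 °C) was followed by selection of diploids and sequencing of their barcodes. Read counts were normalised to the haploid input and turned into Kd by a linear fit to BCL2-family pairs of known affinity, for each replicate. There are three technical replicates.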

The parent's heavy chain CDRs are GFTLNSYGIS, VIYSDGRRTFYGDSVK, GRAAGTFDS; each variant's own CDRs replace them letter for letter.
This list gathers variants with a substitution at F105 (VH, numbered from residue 1).
Kd is apparent (estimated from mating counts) and averaged on the log scale over replicates with a signal. Smaller is tighter.
"nd" means that the variant was in the library but no mating with the target was seen in any replicate; the authors take this as a sign of poor binding, and no number exists.

Variant GFTLNSYGIV / VIYSDGRRTFYGYSVK / GRAAGTTDS gave 29 µM (2 of 3 replicates).
Variant GFTSNSYGIS / VIYSDGRRTFYGDSVK / GRAAGTMMS gave nd (0 of 3 replicates).
Variant GFTLNSNGIS / EIYSDGRRTFYGDSVK / GRAAGTEDS gave nd (0 of 3 replicates).
Variant GFTLNSYGIS / VIYSDGRRTFLGDSWK / GRAAGTSDS gave nd (0 of 3 replicates).
Variant GFTVTSYGIS / VIYSDGRRTFYGDSVK / GRAAGTNDS gave 15 µM (3 of 3 replicates).
Variant GFTLNSYGIS / VIYSDGRRTFYGDSVK / VRAAITIDS gave nd (0 of 3 replicates).
Variant GFTLNSYGIS / VIYSDGRFTFYGDSVK / GRAAGTNVS gave nd (0 of 3 replicates).
Variant GFTLNSYGIS / VIYSDGRRTFYGDSVK / GRAAFTQDS gave nd (0 of 3 replicates).
Variant GFFLNSCGIS / VIYSDGRRTFYGDSVK / GRAAGTWDS gave 10 µM (1 of 3 replicates).
Variant GFTLNSYGIS / VIYSDGRRTFYGDSVK / GRAAGTLDQ gave nd (0 of 3 replicates).
Variant FFTWNSYGIS / VIYSDGRRTFYGDSVK / GRAAGTIDS gave nd (0 of 3 replicates).
Variant GFTLNSYGIS / VIYSDGRRTFYGDSKK / GRCAGTKDS gave nd (0 of 3 replicates).
Variant GFTLNSYGIS / VIYSDGRRTFYGDSVK / GRGAGTKDS gave 4.4 nM (3 of 3 replicates).
Variant GFTLNSYGIS / VIYSDLRRTFVGDSVK / GRAAGTEDS gave nd (0 of 3 replicates).
Variant GFTLNSYGIF / VIYSDGRRTFYGDSVK / GRAWGTGDS gave 23 µM (1 of 3 replicates).
Variant GFPLNTYGIS / VIYSDGRRTFYGDSVK / GRAAGTIDS gave 38 nM (3 of 3 replicates).
Variant GFTLNSYGIS / VIYCDGRRTFYGDSVK / GRAAGTKDW gave nd (0 of 3 replicates).
Variant GFTLNSYGIS / VIYSDGRRTFYGDSVK / GRAATTANS gave nd (0 of 3 replicates).
Variant GFTLNSYGIS / VIYSDGRRTFYGDSVK / GRQAGTDDS gave nd (0 of 3 replicates).
Variant GFTLNSYGIS / VIYSDGRRTFYGDHVK / GRAAGTQDS gave 280 nM (3 of 3 replicates).
Variant GFTLNSYGIS / VIYSDGRRTFYGDGVK / GSAAGTQDS gave 7.6 nM (3 of 3 replicates).
Variant GFILNSYGES / VIYSDGRRTFYGDSVK / GRAAGTPDS gave 340 nM (1 of 3 replicates).
Variant GFTLNSYGIS / VIYSDGRRTPYGDSVK / GRAAGTHDS gave 46 µM (3 of 3 replicates).
Variant GFTLNSYGIS / VIYSDGRRTFYGDSVK / GRAAGPIDP gave 20 µM (1 of 3 replicates).
Variant GFTTNSYGIS / VIYSDGRRTKYGDSVK / GRAAGTWDS gave 71 µM (2 of 3 replicates).
Variant GFTLNSNGIS / VIYSDGRRTFHGDSVK / GRAAGTQDS gave nd (0 of 3 replicates).
Variant GKTLNSYGIS / VIYSDGRRTFYGDSVK / GCAAGTRDS gave nd (0 of 3 replicates).
Variant GFTLNSYGIS / VIYSHGRRTFGGDSVK / GRAAGTTDS gave 27 µM (2 of 3 replicates).
Variant GFTLNSYGIS / VIYNDGRRTFYGDSVK / GRAVGTHDS gave nd (0 of 3 replicates).
Variant GFTLNSYGIS / VIYSDGRRTFYGDSVK / KRAAGTYDS gave 360 nM (3 of 3 replicates).
Variant GFTLNSYQIS / VIYSQGRRTFYGDSVK / GRAAGTCDS gave 39 µM (2 of 3 replicates).
Variant GFTLNSYGIS / VIVSDGRRTFYGDSVL / GRAAGTDDS gave 9.4 µM (1 of 3 replicates).
Variant GFTLNSYGGS / VIYSDGRRTFYGDSVK / GRWAGTPDS gave nd (0 of 3 replicates).
Variant GFTLISYGIS / VIYSDGRWTFYGDSVK / GRAAGTQDS gave 26 µM (1 of 3 replicates).
Variant GFTLNSYGFS / VIYSDGRRTFYGDSQK / GRAAGTADS gave 4.6 µM (1 of 3 replicates).
Variant GFTLNSYGIS / VIYSDGRRTFYGDSVK / FRAAGPWDS gave nd (0 of 3 replicates).
Variant GFTLNSYGIS / VIYSDGRRTKYQDSVK / GRAAGTSDS gave 200 nM (3 of 3 replicates).
Variant GFTLNSYGIS / VIYGDGRRTFNGDSVK / GRAAGTEDS gave nd (0 of 3 replicates).
Variant GFTLNSYGIS / SIYSDGRRTFYGDSPK / GRAAGTTDS gave 6.2 µM (1 of 3 replicates).
Variant GFTLNSYGIS / VIYSDGRRTFYGDSVK / GRAARTSTS gave 16 nM (3 of 3 replicates).
Variant GFPLNSYGIS / VIYSDGWRTFYGDSVK / GRAAGTKDS gave 130 nM (3 of 3 replicates).
Variant GFTLNSYGIS / VIYSDGRRTAYGDSVK / GRAAGTWDW gave 570 nM (1 of 3 replicates).
Variant GFTLNSYGIS / VIYSDGRRTFFGDSYK / GRAAGTLDS gave nd (0 of 3 replicates).
Variant GFTLNSYGIS / VIYVDGRRTFYGDSVK / GRDAGTPDS gave 6.4 µM (2 of 3 replicates).
Variant GFTLNSYGIS / VIYYDGRRTFYGDSVM / GRAAGTTDS gave nd (0 of 3 replicates).
Variant GFTLNSYGIS / PIYSDGRRTFYGDSVK / GRAMGTTDS gave 17 µM (1 of 3 replicates).

Nonspecific signal, from three strains lacking the peptide, appeared in 15% of pairings of library AAYL49, centred on 11 µM (5% of these signals below 680 nM); values are not corrected for it.